Here are results for 30 molecules from PubChem BioAssay AID924 (National Center for Advancing Translational Sciences (NCATS), 2007).

SMILES strings stand for the structures. Only a part is listed here, and it is no random draw. Inconclusive results are not listed. Calls of active or inactive are those of the source. Calls follow the shape of the dose curve; as a rule, active = well fitted cell-killing curve with a large enough effect; inconclusive = small, poorly fitted or top-dose-only effect; inactive = no such curve, though single readings can be large or run the other way.

This experiment can be described thus: qHTS Screen for Compounds that Selectively Target Cancer Cells with p53 Mutations: Cytotoxicity of p53ts Cells at the Permissive Temperature.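 Also: 0% = DMSO and -100% = full killing by reference compound; nearly all actives have a fitted effect of over 55% in size.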 The note with it: H1299-p53A138V at 32C, ATP luminescence viability, 24 h; at 46.1 µM (top of the series) unless noted.
As to `Cc1nc2ccc3ccccc3c2s1.O=[N+]([O-])c1cc([N+](=O)[O-])c(O)c([N+](=O)[O-])c1`, the activity change, negative = cytotoxicity was inactive: -4.41%.

`Cc1ccc([N+](=O)[O-])cc1[N+](=O)[O-]`: the activity change, negative = cytotoxicity was inactive: -2.14% [at 1.84 µM]. The same measure for `Cc1ccc(C)c(NP(C)(=O)Oc2ccccc2)c1` (stereo not given): inactive: 1.45%. The same measure for `Cc1ccc(NP(C)(=O)Oc2ccccc2)c(C)c1` (stereo not given): inactive: 9.54%.

For `COc1ccccc1OP(C)(=O)Nc1ccc(C)cc1` (stereo not given), the activity change, negative = cytotoxicity was inactive: 10.2%. The same measure for `CP(=S)(Nn1cnnc1)Oc1ccccc1` (stereo not given): inactive: 2.59%. The value for `N1=C(c2nnc(-c3nn[nH]n3)nn2)NNN1` was inactive: 2.42% [at 9.22 µM]; that for `CCOP(C)(=S)SCC(=O)NC(C)C(=O)O` (stereo not given) was inactive: 2.97%. The value for `Cc1cc(C)cc(OP(C)(=O)Nc2ccc(SC(F)(F)F)cc2)c1` (stereo not given) was inactive: -12.7%; that for `CP(=O)(NC(=O)Nc1ccccc1)Oc1ccccc1` (stereo not given) was inactive: -13.6%; that for `Cc1cccc(C)c1OP(C)(=O)Nc1ccc(SC(F)(F)F)cc1` (stereo not given) was inactive: -20.9%. For `OCCSCCO`, the activity change, negative = cytotoxicity was inactive: -12.6%. For the molecule `COc1ccccc1OP(C)(=O)Nc1c(C)n(C)n(-c2ccccc2)c1=O` (stereo not given), the activity change, negative = cytotoxicity is inactive: 0.15%. The same measure for `CP(=O)(Oc1ccccc1)N1CCOC1=O` (stereo not given): inactive: -1.57%. The same measure for `N#[O+].[C-]#N.[C-]#N.[C-]#N.[C-]#N.[C-]#N.[Fe+2].[Na+].[Na+]`: inactive: 13%; for `COc1ccccc1OP(C)(=O)Nc1ccc(C)c(C)c1` (stereo not given): inactive: 4.95%; for `CP(=O)(Nc1ccccn1)Oc1ccccc1` (stereo not given): inactive: -1.39%. The same measure for `CP(=O)(Nc1ccccc1F)Oc1ccccc1` (stereo not given): inactive: 3.87%; for `CCN(CC)CCCOC(=O)C(O)(c1ccccc1)C1CCCCC1` (stereo not given): inactive: 3.95%; for `Cc1cccc([N+](=O)[O-])c1[N+](=O)[O-]`: inactive: 11% [at 1.84 µM]. With `CCC(C)(OO)OOC(C)(CC)OO` (stereo not given), the activity change, negative = cytotoxicity is inactive: 2.88% [at 1.84 µM].

As for `Cc1ccc([N+](=O)[O-])c([N+](=O)[O-])c1`, the activity change, negative = cytotoxicity is inactive: -2.1% [at 1.84 µM]. The value for `Cc1c([N+](=O)[O-])cccc1[N+](=O)[O-]` was inactive: 10.2% [at 1.84 µM]; that for `CN(C)CCOC(=O)C(O)(c1ccccc1)C1CCCCC1` (stereo not given) was inactive: 2.7%. The value for `Cc1ccccc1NP(C)(=O)Nc1ccccc1C` was inactive: 6.11%. The value for `CCN(CCCl)Cc1ccccc1C` was inactive: 4.23%.

With `NNC(NN)NN.n1nc(-c2nn[nH]n2)n[nH]1`, the activity change, negative = cytotoxicity is inactive: -1.46% [at 9.22 µM]. The same measure for `CP(=O)(Nc1ccc2c(c1)OCCO2)Oc1ccccc1` (stereo not given): inactive: 5.97%. The same measure for `CCOP(C)(=S)SCC(=O)NC(C)(CC)C(=O)O` (stereo not given): inactive: 10%; for `CCOP(=O)(CC)OCC`: inactive: -15.3% [at 1.84 µM].
